1 compound from patent US12496309B2, “Method for treatment of pancreatitis” (NovMetaPharma Co., Ltd., priority 2020, dated 2025) can be followed below.

Amino acid sequences for entries named in this document (tags omitted). A change or cut given only in a name is not applied to a line headed by its entry.
UniProt Q12809: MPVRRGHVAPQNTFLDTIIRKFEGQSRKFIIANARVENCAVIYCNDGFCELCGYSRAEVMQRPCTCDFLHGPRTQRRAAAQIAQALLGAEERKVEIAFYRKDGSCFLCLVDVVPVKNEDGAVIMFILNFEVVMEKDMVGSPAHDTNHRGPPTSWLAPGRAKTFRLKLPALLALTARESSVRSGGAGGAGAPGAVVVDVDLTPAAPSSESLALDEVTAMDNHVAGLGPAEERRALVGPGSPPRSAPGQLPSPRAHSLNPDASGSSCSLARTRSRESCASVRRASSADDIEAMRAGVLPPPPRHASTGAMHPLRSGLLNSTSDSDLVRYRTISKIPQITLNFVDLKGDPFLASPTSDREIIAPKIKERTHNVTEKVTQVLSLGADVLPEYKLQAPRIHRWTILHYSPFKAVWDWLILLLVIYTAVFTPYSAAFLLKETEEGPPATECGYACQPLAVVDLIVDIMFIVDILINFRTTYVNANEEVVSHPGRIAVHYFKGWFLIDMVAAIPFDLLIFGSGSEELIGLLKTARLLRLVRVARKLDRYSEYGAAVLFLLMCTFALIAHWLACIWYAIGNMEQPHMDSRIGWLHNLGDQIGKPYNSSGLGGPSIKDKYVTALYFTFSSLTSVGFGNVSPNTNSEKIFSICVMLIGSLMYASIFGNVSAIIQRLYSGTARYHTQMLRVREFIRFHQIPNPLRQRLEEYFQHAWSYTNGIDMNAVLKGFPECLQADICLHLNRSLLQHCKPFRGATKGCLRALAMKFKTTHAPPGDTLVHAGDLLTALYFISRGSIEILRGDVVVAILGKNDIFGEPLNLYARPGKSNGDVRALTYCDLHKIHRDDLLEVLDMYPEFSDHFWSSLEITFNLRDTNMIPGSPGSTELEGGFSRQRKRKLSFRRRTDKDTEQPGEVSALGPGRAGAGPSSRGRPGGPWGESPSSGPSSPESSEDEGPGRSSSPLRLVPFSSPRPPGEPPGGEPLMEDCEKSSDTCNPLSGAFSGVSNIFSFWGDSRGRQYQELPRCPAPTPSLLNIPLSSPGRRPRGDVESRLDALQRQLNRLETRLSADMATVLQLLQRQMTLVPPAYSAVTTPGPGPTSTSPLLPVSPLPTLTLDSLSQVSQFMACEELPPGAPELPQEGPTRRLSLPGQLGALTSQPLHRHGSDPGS

This test deals with hERG (Homo sapiens, UniProt Q12809). As to the kind of experiment: hERG binding.

Compound `CN(C)CCOc1ccc(/C(=C(/CCCO)c2ccccc2)c2ccc(O)cc2)cc1` [GSK5182, reference compound] had an IC50 greater than 30 µM.
